Source: ChEMBL document CHEMBL4834412, “2,4,5-Trisubstituted Pyrimidines as Potent HIV-1 NNRTIs: Rational Design, Synthesis, Activity Evaluation, and Crystallographic Studies” (J Med Chem, 2021)

Assay: Oral bioavailability in Sprague-Dawley rat at 20 mg/kg
Format: ADME, organism-based
Details: in vivo

With `Cc1cc(C#N)cc(C)c1Oc1nc(NC2CCN(Cc3ccc(C(N)=O)cc3)CC2)ncc1-c1ccncc1` the F was 15.3%.
